Results taken from patent publication US6613897B1, “Compounds having glucuronic acid derivatives and glucosamine derivative in the structure, process for producing the same and utilization thereof” (Maruha Corporation, priority 1998, dated 2003).

Legend:
[1] = test system: rabbit platelet rich plasma; details: read-out: 50% Inhibitory Concentration; collagen-induced platelet aggregation, rabbit PRP
[2] = test system: bovine aortic vascular endothelial cells; experiment: Vascular endothelial cell growth promoting action (BrdU uptake); format: cell-based; details: 20 hours
Protocol: Also, the compounds of the invention acted synergistically with vascular endothelial growth factor (VEGF), a cytokine known to act specifically on vascular endothelial cells and promote the growth of these cells, thereby showing a better vascular endothelial cell growth promoting action.
This test used bovine aortic vascular endothelial cells (passage number 3) as cells, and MEM containing 10% FCS (fetal calf serum), 100 units/mL penicillin G, and 100 μg/mL streptomycin as a culture medium. 96-Well microplates were seeded with the cells in an amount of 4×10^3 cells/well (4×10^4/mL; 100 μL), and the compounds of the formula (1) (Compound Examples 1 to 10) (10 μL; dissolved in culture medium) were each added in a predetermined end concentration (0, 0.1, 0.5, 1, 5, 10 μg/mL). Culture was performed for 20 hours at 37° C. and 5% CO2, and then the effect of the compounds on vascular endothelial cell growth was measured using “Cell Growth ELISA, BrdU Color Development Kit” (Boehringer Mannheim) (uptake of 5-bromodeoxyuridine (BrdU) was adopted as an indicator).

[3] = test system: bovine aortic vascular endothelial cells

## 4-deoxy-α-L-threo-hexa-4-enepyranuronosyl-(1→3)-O-2-acetamide-2-deoxy-β-D-glucopyranosyl-(1→4)-3-O-β-D-glucopyranuronosyl-(1→3)-O-2-acetamide-2-deoxy-β-D-glucopyranosyl-(1→4)-3-O-β-D-glucopyranuronitol [Compound Example 10]
[1]
  IC50: 3.5 nM
[2]; compound concentration 0.1 μg/mL
  Promoting rate: 101.1%
[2]; compound concentration 0.5 μg/mL
  Promoting rate: 138.8%
[2]; compound concentration 1 μg/mL
  Promoting rate: 178.3%
[2]; compound concentration 5 μg/mL
  Promoting rate: 170.0%
[2]; compound concentration 10 μg/mL
  Promoting rate: 135.8%
[3]; compound concentration 0.1 μg/mL + VEGF 10 ng/mL
  Promoting rate: 165.2%
[3]; compound concentration 0.5 μg/mL + VEGF 10 ng/mL
  Promoting rate: 199.9%
[3]; compound concentration 1 μg/mL + VEGF 10 ng/mL
  Promoting rate: 243.3%
[3]; compound concentration 5 μg/mL + VEGF 10 ng/mL
  Promoting rate: 228.7%
[3]; compound concentration 10 μg/mL + VEGF 10 ng/mL
  Promoting rate: 194.0%

Like-named read-outs stand apart in the source and are kept apart here.
